For experiment [1], the target named is human α-thrombin (human), P00734. Put plainly: microplate thermal shift assay, 1,8-ANS fluorescence; Kd at Tm (329.52 K) calculated with equation (1), single ligand.
Experiment [2] has the same target. The experiment can be described thus: microplate thermal shift assay, 1,8-ANS fluorescence; Kd at 298 K estimated with equation (3), single ligand.

A word on the Kd: it is a measure of binding affinity in units of concentration.

With DGDFEEIPEEYL (modifications not checked) [Hirugen (hirudin 53-64), P01050 53-64], the Kd is 185 nM in experiment [1] and 23 nM in experiment [2].
